Experimental data from patent publication US20160220542A1, “SYNERGISTIC ACTIVITY OF MODULATORS OF THE NO METABOLISM AND OF NADPH OXIDASE IN THE SENSITISATION OF TUMOR CELLS” (Universitaetsklinikum Freiburg, priority 2010, published 2016).

Test system: extracellular superoxide anion production of MKN-45 cells
Assay: extracellular superoxide anion production of MKN-45 cells (Cu SOD bell curve shift)
Format: cell-based
Conditions: lower epothilone concentration; malvidin chloride, artemisinin; 150 mM 3-AT, 8 hours

C[C@@H]1CC[C@H]2[C@@H](C)C(=O)O[C@@H]3O[C@@]4(C)CC[C@@H]1[C@]32OO4 [artemisinin]
effect on superoxide anion production: did not demonstrate any effect
